BindingDB's records for doi:10.1016/j.bmcl.2018.11.015 (Boehringer Ingelheim Pharmaceuticals, 2019)

Assay: Antagonist activity at CCR1 in human THP1 cells assessed as inhibition of chemotaxis after 30 mins by Celltiter-glo reagent based luminescence assay

IC50: 39 nM
SMILES: CC(C)(O)CC[C@H](C[C@H](O)[C@H](Cc1cccc(F)c1)NC(=O)c1cnc2ccccc2n1)C(N)=O
